Results published in PubChem BioAssay AID932 (The Scripps Research Institute Molecular Screening Center, 2007).
The list shows a part of the results, in another mix than the full data. Activity calls are given as the source filed them.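 Rule for the calls: active = activation above the screen-wide mean activation plus 3 SD (cut at about 130% in these data); inactive = the rest.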

assay: potentiators of IFN-gamma driven STAT1 reporter – cell-based, HTS, luciferase reporter, primary screen (AID 932); details: NIH 3T3 STAT1-luciferase reporter, luminescence, at 5.5 µM, stronger effect = higher value, 100% = IFN-gamma alone, no compound;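 note: raw ratio to IFN-gamma control signal so 100% means no change and 0% no light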

| Compound | activation (% of control) |
| --- | --- |
| CP(=O)(OC12CC3CC(CC(C3)C1)C2)OC12CC3CC(CC(C3)C1)C2 | inactive: 88.8% |
| CCOC(=O)c1ccc(NP(C)(=O)Oc2ccc(Cl)cc2)cc1 (stereo not given) | inactive: 96.1% |
| CP(=O)(Nc1ccc(Cl)cc1)Oc1ccc(F)cc1 (stereo not given) | inactive: 92.7% |
| CC(C)(C)c1ccc(OP(C)(=O)O)cc1 | inactive: 103% |
| COc1ccccc1OP(C)(=O)Nc1ccccc1Br (stereo not given) | inactive: 106% |
| CN(C)C(=O)c1c([N+](=O)[O-])cc([N+](=O)[O-])cc1[N+](=O)[O-] | inactive: 99.4% |
| COc1ccc(OP(C)(=O)Nc2ccc(Br)cc2)cc1 (stereo not given) | inactive: 95.5% |
| CCN(CC)CC(O)COC(=O)C(O)(c1ccccc1)C1CCCCC1 (stereo not given) | inactive: 105% |
| CCc1ccc(OP(C)(=O)Nc2cccnc2)cc1 (stereo not given) | inactive: 100% |
| CP(=O)(Oc1ccccc1)N1CCOC1=O (stereo not given) | inactive: 99.9% |
| COc1ccccc1OP(C)(=O)Nc1c(C)n(C)n(-c2ccccc2)c1=O (stereo not given) | inactive: 94.9% |
| O=[N+]([O-])c1cc([N+](=O)[O-])c(Nc2ccccn2)c([N+](=O)[O-])c1 | inactive: 71.9% |
| Cc1c(NP(C)(=O)Oc2ccc(C(C)C)cc2)c(=O)n(-c2ccccc2)n1C (stereo not given) | inactive: 104% |
| CCc1ccc(OP(C)(=O)O)cc1 | inactive: 95.7% |
| COc1ccccc1OP(C)(=O)Nc1ccc(C)cc1C (stereo not given) | inactive: 94.7% |
| CP(=O)(Nc1ccccn1)Oc1ccccc1 (stereo not given) | inactive: 101% |
| CN(C)CCOC(=O)C(O)(c1ccccc1)C1CCCC1 (stereo not given) | inactive: 96% |
| COc1ccc(OP(C)(=O)Nc2ccccn2)cc1 (stereo not given) | inactive: 100% |
| Cc1nc2ccc3ccccc3c2o1.O=[N+]([O-])c1cc([N+](=O)[O-])c(O)c([N+](=O)[O-])c1 | inactive: 105% |
| CP(=O)(OCCOc1ccccc1)OCCOc1ccccc1 | inactive: 102% |
| CP(=O)(Nc1ccc(Cl)cc1Cl)Oc1ccccc1 (stereo not given) | inactive: 102% |
| Cc1cc(C)cc(OP(C)(=O)Nc2cccc(C(F)(F)F)c2)c1 (stereo not given) | inactive: 98.6% |
| COc1ccc(OP(C)(=O)Nc2ccccc2Br)cc1 (stereo not given) | inactive: 97.2% |
| COc1ccccc1OP(C)(=O)Nc1ccc(C)c(C)c1 (stereo not given) | inactive: 99% |

| Compound | activation (% of control) |
| --- | --- |
| CCN(CC)CCCOC(=O)C(O)(c1ccccc1)C1CCCCC1 (stereo not given) | inactive: 98% |
| CP(=O)(Nc1ccccc1)Oc1ccc(F)cc1 (stereo not given) | inactive: 104% |
| COc1ccc(OP(C)(=O)Nc2ccc(SC(F)(F)F)cc2)cc1 (stereo not given) | inactive: 100% |
| CCOC(=O)c1ccc(NP(C)(=O)Oc2ccc(F)cc2)cc1 (stereo not given) | inactive: 104% |
| O=C(OCCN1CCN(CCOCc2ccccc2)CC1)C(O)(c1ccccc1)c1ccccc1 | inactive: 104% |
| CC(C)c1ccc(OP(C)(=O)Nc2ccc(SC(F)(F)F)cc2)cc1 (stereo not given) | inactive: 103% |
| CP(=O)(Nc1ccccc1F)Oc1ccccc1 (stereo not given) | inactive: 107% |
| CP(=O)(Nc1ccc2c(c1)OCCO2)Oc1ccccc1 (stereo not given) | inactive: 92.9% |
| Cc1ccccc1NP(C)(=O)Nc1ccccc1C | inactive: 97.7% |
| CCOP(C)(=S)SCC(=O)NC(C)(CC)C(=O)O (stereo not given) | inactive: 99.1% |
| O=[N+]([O-])c1cc([N+](=O)[O-])c(NCC2CCS(=O)(=O)C2)c([N+](=O)[O-])c1 (stereo not given) | inactive: 85.4% |
| COc1ccc(OP(C)(=O)Nc2cccc(Br)c2)cc1 (stereo not given) | inactive: 99.4% |
| COc1ccc(NP(C)(=O)Oc2ccccc2OC)cc1 (stereo not given) | inactive: 99.1% |
| CN(C)CCOC(=O)C(O)(c1ccccc1)C1CCCCC1 (stereo not given) | inactive: 92.4% |
| COc1ccccc1OP(C)(=O)Nc1c(C)cccc1C (stereo not given) | inactive: 96.8% |
| CN1CCCCC1COC(=O)C1(O)c2ccccc2CCc2ccccc21 (stereo not given) | inactive: 93.2% |
| CP(=O)(Nc1ccc(SC(F)(F)F)cc1)Oc1ccccc1 (stereo not given) | inactive: 93.9% |
| CCCOc1ccc(NP(C)(=O)Oc2ccc(Cl)cc2)cc1 (stereo not given) | inactive: 101% |
| Cc1nc2ccc3ccccc3c2s1.O=[N+]([O-])c1cc([N+](=O)[O-])c(O)c([N+](=O)[O-])c1 | inactive: 110% |
| O=[N+]([O-])c1cc([N+](=O)[O-])c(-n2nnc3ccccc32)c([N+](=O)[O-])c1 | inactive: 96.6% |
| CP(=O)(Nc1cccc(Br)c1)Oc1ccccc1 (stereo not given) | inactive: 101% |
| Cc1cc(C)cc(OP(C)(=O)Nc2ccccn2)c1 (stereo not given) | inactive: 109% |
| Cc1ccc(C)c(NP(C)(=O)Oc2ccccc2)c1 (stereo not given) | inactive: 104% |
| Cc1cc(C)cc(OP(C)(=O)Nc2ccc(C)cc2C)c1 (stereo not given) | inactive: 107% |

| Compound | activation (% of control) |
| --- | --- |
| CCOC(=O)c1ccc(NP(C)(=O)Oc2cc(C)cc(C)c2)cc1 (stereo not given) | inactive: 107% |
| CC1=NCCc2c1[nH]c1ccccc21.O=[N+]([O-])c1cc([N+](=O)[O-])c(O)c([N+](=O)[O-])c1 | inactive: 91.1% |
| CCOC(=O)c1ccc(NP(C)(=O)Oc2ccccc2)cc1 (stereo not given) | inactive: 104% |
| Cc1ccc(NP(C)(=O)Oc2ccccc2)c(C)c1 (stereo not given) | inactive: 93.7% |
| COc1ccccc1OP(C)(=O)Nc1ccc(C)cc1 (stereo not given) | inactive: 99.7% |
| COc1ccc(OP(C)(=O)Nc2cccc(F)c2)cc1 (stereo not given) | inactive: 106% |
| COc1ccccc1OP(C)(=O)Nc1cc(Cl)ccc1C (stereo not given) | inactive: 92.8% |
| Cc1cc(C)cc(OP(C)(N)=O)c1 (stereo not given) | inactive: 96.3% |
| Cc1cccc(C)c1OP(C)(N)=O (stereo not given) | inactive: 92.8% |
| CC(C)(C)c1ccc(OP(C)(=O)Nc2ccc(SC(F)(F)F)cc2)cc1 (stereo not given) | inactive: 96.3% |
| O=[N+]([O-])c1ccc2c(c1)C=Nc1ccccc1O2 | inactive: 102% |
| CCN(CC)CCCOC(=O)C(O)(c1ccccc1)c1ccccc1 | inactive: 101% |
| CCOP(C)(=S)SCC(=O)NC(C)C(=O)O (stereo not given) | inactive: 111% |
| CCOC(=O)c1ccc(NP(C)(=O)Oc2ccc(OC)cc2)cc1 (stereo not given) | inactive: 97.3% |
| CP(=O)(Nc1ccccn1)Oc1ccc(Cl)cc1 (stereo not given) | inactive: 93.9% |
| CP(=O)(Oc1ccccc1)OC(c1ccccc1)C(F)(F)F (stereo not given) | inactive: 84.9% |
| Cc1cccc(C)c1OP(C)(=O)Nc1ccc(SC(F)(F)F)cc1 (stereo not given) | inactive: 104% |
| Cc1cc(C)cc(OP(C)(=O)Nc2ccc(SC(F)(F)F)cc2)c1 (stereo not given) | inactive: 104% |
| CP(=O)(NC(=O)Nc1ccccc1)Oc1ccccc1 (stereo not given) | inactive: 97.7% |
| CP(=S)(Nn1cnnc1)Oc1ccccc1 (stereo not given) | inactive: 93.8% |
| COc1ccccc1OP(C)(=O)Nc1ccccc1 (stereo not given) | inactive: 104% |
| CP(=O)(Nc1ccccc1Br)Oc1ccccc1 (stereo not given) | inactive: 95.4% |
